Experimental findings from ChEMBL document CHEMBL4330158, “Prenylated Flavonoids from the Roots and Rhizomes of Sophora tonkinensis and Their Effects on the Expression of Inflammatory Mediators and Proprotein Convertase Subtilisin/Kexin Type 9” (J Nat Prod, 2019) are described below.

The assay has as its system 5'-AMP-activated protein kinase (Homo sapiens). Kind of assay: Induction of AMPK phosphorylation in human HepG2 cells at 4 to 20 uM by Western blot analysis. (In general: In western blotting, separated proteins are transferred to a membrane and probed.)

Activity calls are given as the source filed them. The rule behind the calls is not given here.

Regarding `CC(C)=CCc1c(O)ccc2c1OC[C@H]1c3ccc4c(c3O[C@@H]21)OC(C)(C)C=C4` [ERYBREADIN D], the result was Active.
